The list shows a part of the results, in another mix than the full data. Some of these compounds have results that are not shown, active ones among them. Calls of active or inactive are those of the source.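 How the source made its calls: active means activation above the mean of all tested compounds plus 3 SD, computed per campaign excluding outliers beyond control limits (cut at about 13% in these data); inactive means the rest.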

Amino acid sequences for entries named in this document (tags omitted).
UniProt P49862, whole entry: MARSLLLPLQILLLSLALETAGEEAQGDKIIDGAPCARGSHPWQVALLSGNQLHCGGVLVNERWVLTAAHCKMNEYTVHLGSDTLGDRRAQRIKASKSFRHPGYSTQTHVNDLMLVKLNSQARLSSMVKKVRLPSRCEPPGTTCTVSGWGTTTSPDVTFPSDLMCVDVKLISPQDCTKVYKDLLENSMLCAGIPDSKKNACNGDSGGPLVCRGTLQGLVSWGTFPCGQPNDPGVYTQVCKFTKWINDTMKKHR

This test addresses Kallikrein-7 (Homo sapiens) (UniProt P49862). As to the kind of experiment: activation of human kallikrein-7 proenzyme – biochemical, fluorescence intensity, primary screen (AID 652039). As to conditions: purified proKLK7, EDANS-DABCYL substrate fluorescence; at 7 µM; active compounds read high; 100% is mature enzyme control, 0% vehicle.
On to `C=C(C)C#CC(O)(C(=O)OC1CCN(C)CC1)c1ccccc1` (stereo unspecified), for which the activation is inactive: -0.46%.
In the case of `COc1ccc(Br)c(C(=O)NCC2(N3CCCCC3)CCCCC2)c1`, the activation was inactive: -0.22%.
As for `CC(C)Oc1ccc(C(=O)NCC2(N(C)C)CCCCC2)cc1`, the activation was inactive: 0.26%.
With `O=C(OCCN1CCCC1)C(O)(c1ccccc1)c1ccccc1`, the activation is inactive: 0.02%.
For the compound `CN(C)c1cccc(C(=O)NCC2(N(C)C)CCCCC2)c1`, the activation was inactive: 0.98%.
Then `O=C(OC1CN2CCC1CC2)C(CO)(c1ccccc1)c1ccccc1` (stereo unspecified), with inactive: -0.28%; and `COc1cccc(C(=O)NCC2(N3CCCCC3)CCCCC2)c1`, with inactive: -0.09%; and `COc1ccc(Cl)cc1C(=O)NCC1(N(C)C)CCCCC1`, with inactive: 0.02%.
Regarding `O=C(NCC1(N2CCCCC2)CCCCC1)c1cccc(Cl)c1`, the activation is inactive: 0.41%.
Turning to `CN(C)C1(CNC(=O)c2ccc(Br)cc2)CCCCC1`, the activation is inactive: -0.07%.
As for `COc1cc(C(=O)NCC2(N(C)C)CCCCC2)c([N+](=O)[O-])cc1OC`, the activation is inactive: -0.75%.
Take `C=CCN1CCN(CCOC(=O)C(O)(c2ccccc2)c2ccccc2)CC1`: the activation is inactive: 0.51%.
As to `O=C(NCC1(N2CCCCC2)CCCCC1)c1cc(F)c(F)cc1Cl`, the activation is inactive: -0.24%.
Turning to `COc1ccc(C(=O)NCC2(N(C)C)CCCCC2)cc1`, the activation is inactive: 0.03%.
`CCN1CCCC(OC(=O)C2(O)c3ccccc3C=Cc3ccccc32)C1` (stereo unspecified): the activation is inactive: 0.3%.
As for `Cc1cc(C(=O)NCC2(N3CCCCC3)CCCCC2)ccc1[N+](=O)[O-]`, the activation is inactive: 0.5%.
For `O=C(NCC1(N2CCCCC2)CCCCC1)c1cccc(Br)c1`, the activation is inactive: -0.14%.
Then `Cc1ccccc1C(=O)NCC1(N2CCCCC2)CCCCC1`, with inactive: 0.1%; and `CN(C)c1ccc(C(=O)NCC2(N(C)C)CCCCC2)cc1`, with inactive: -0.13%.
Then `CN(C)C1CCCC1OC(=O)C(O)(c1ccccc1)c1ccccc1` (stereo unspecified), with inactive: -0.25%; and `CCN(CC)CC(C)C(C)OC(=O)C(O)(c1ccccc1)c1ccccc1` (stereo unspecified), with inactive: -0.79%; and `COc1cc(SC)ccc1C(=O)NCC1(N(C)C)CCCCC1`, with inactive: -0.38%.
As to `CC(C)N1C(=O)CC2(CCN(CCOC(=O)C(O)(c3ccccc3)c3ccccc3)CC2)C1=O`, the activation is inactive: 0.32%.
Then `Cc1ccc(C(=O)NCC2(N3CCCCC3)CCCCC2)cc1`, with inactive: 0.6%; and `O=C(NCC1(N2CCCCC2)CCCCC1)c1cc([N+](=O)[O-])ccc1Cl`, with inactive: 0.61%.
`CN1[C@@H]2CC[C@H]1CC(OC(=O)C(O)(c1ccccc1)c1ccccc1)C2` (stereo partly specified): the activation was inactive: 0.01%.

The record behind these values is PubChem BioAssay AID652039 (The Scripps Research Institute Molecular Screening Center, 2013).
